The values that follow are results of earlier work, collected in patent US20220050096A1, “ANALYTE-SENSITIVE PROBES AND CONTACT LENS FOR DIAGNOSIS OF OCULAR PATHOLOGIES” (University Of Maryland, Baltimore, priority 2020, published 2022).

The conditions of the data set: cited from earlier work.

Regarding “2′,7′-bis(2-carboxyethyl)-5(6)-carboxyfluorescein [BCECF]”, the “Lifetime (ns) τA” value (A form (value in parentheses)) is 3.17 ns. Besides, under “B form”, the “Lifetime (ns) τB” value is 4.49 ns and the QB was about 0.7. The “lifetime at high pH” value (high pH) was 3.9. The “lifetime at low pH” value (low pH) is 3.0.
